According to patent US8039468B2, “Method of inhibition of respiratory depression using positive allosteric AMPA receptor modulators” (The Governors of the University of Alberta, priority 2006, dated 2011):

Tests used:
rats = test: Thermal nociception, hind paw withdrawal test; format: in vivo, rat; details: CX546 16 mg/kg or naloxone 1 mg/kg i.p.
XII motorneuron = details: compound in bathing medium, TTX present
Sprague-Dawley rat = test: Whole-body plethysmography of frequency and depth of breathing in unrestrained rats
[1] = P17 rat, fentanyl 130 μg/kg i.p., then Compound A 33 mg/kg or CX614 2.5 mg/kg

Molecule | Latency (s), hind paw withdrawal (rats; Adult (2-3 months), post-administration of fentanyl 130 μg/kg) | Latency (s), hind paw withdrawal (rats; Newborn (P1-P2), post-administration of fentanyl 60 μg/kg) | fentanyl-induced analgesia after subsequent administration of the drug (rats; newborn and adult rats) | increase of amplitude of glutamate-induced inward currents (XII motorneuron) | behaviour or arousal state (spontaneous movement, agitation, sedation) (Sprague-Dawley rat; P17 rat after fentanyl 130 μg/kg, Compound A 33 mg/kg or CX614 2.5 mg/kg i.p.) | fentanyl-induced respiratory depression (Sprague-Dawley rat; [1]) | persistence of enhancement of respiratory rhythm (Sprague-Dawley rat; [1]) | time to reversal of fentanyl-induced respiratory depression (Sprague-Dawley rat; [1])
C=CCN1CC[C@]23c4c5ccc(O)c4O[C@H]2C(=O)CC[C@@]3(O)[C@H]1C5 | 4.8 ± 1.9 s | 4.0 ± 3.1 s | blocked | – | – | – | – | –
2H,3H,6aH-pyrrolidinol[2″,1″-3′,2′]1,3-oxazino[6′,5′-5,4]benzo[e]1 ,4-dioxan-10-one | – | – | – | 2 fold | without any obvious effect | reversed | at least 1 hour | within minutes
